According to PubChem BioAssay AID2216 (Broad Institute, 2009):
The campaign covered roughly 300,000 compounds. About 3,300 (1.1%) were called active. The source calls these results inconclusive, neither active nor inactive.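 Rule for the calls: active = more than half of the replicate wells show a fall in the fluorescence ratio signal beyond about 16% (limit read from the data, passing the limit was not always enough); inconclusive = exactly half of the replicate wells pass the set limit; inactive = fewer than half of replicates pass the limit.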

Test system: Ran GTPase (GTP-bound) - importin-beta complex
Assay: inhibitors of RanGTP-importin-beta interaction, primary screen, biochemical, FRET, CFP-Ran, YFP-importin-beta, homogeneous (AID 2216);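 note: 0% = DMSO wells and 100% = Ran loaded with GDP instead of GTP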
Conditions: cell-free CFP-Ran/YFP-importin-beta FRET ratio; stronger effect = higher value; concentration not given here

With `Cc1ccc(C(=O)OC2CN3CCC2CC3)cc1` (configuration not stated) as the compound, how does the inhibition read?
The inhibition was inconclusive: 20%.

`O=P(Nc1nc2ccccc2s1)(c1ccccc1)c1ccccc1` was tested. Which inhibition did it give?
The inhibition was inconclusive: 9.39%.

For `O=C(OC1CN2CCC1CC2)c1cccc(Cl)c1` (configuration not stated), which inhibition is on record?
Its inhibition is inconclusive: 16.1%.

How did the inhibition turn out when `CCNC(=S)/N=C(\N)N[N+](=O)[O-]` was run?
The inhibition was inconclusive: 16.2%.

`CN(C)C(=O)Oc1noc2ccccc12` was tested. Which inhibition did it give?
The inhibition was inconclusive: 9.83%.

How did the inhibition turn out when `COc1ccccc1OP(=O)(Nc1ccc(C)cn1)Oc1ccccc1OC` was run?
The inhibition was inconclusive: 8.72%.

For `CCc1nc2c(n1)c1c(non1O)c1c2no[n+]1[O-]`, which inhibition is on record?
Its inhibition is inconclusive: 12.9%.
